# Laboratory results reported in PubChem BioAssay AID662 (National Center for Advancing Translational Sciences (NCATS), 2007).
# The whole screen tested about 71,000 compounds, of which about 1,800 (2.5%) were called active. These results got no clear call from the source, so the numbers are uncertain. The call rests on the fitted dose curve; in most records, active means well fitted activation curve with a large enough effect in the signal ratio, with a control signal flat (not every such curve was filed as active); inconclusive means small, poorly fitted or top-dose-only effect, or effect the other way, or a change in a side signal; inactive means flat fitted curve, though single readings scatter; the % refers to the signal ratio.
# Assay: Cell signaling CRE-BLA (Fsk stim); on activity change, negative = inhibition: % of control where 0% means no effect
# Details: CHO CRE-bla reporter (cAMP response element driving beta-lactamase), forskolin EC10, beta-lactamase ratio; activity change, negative = inhibition: at 38.2 µM (top of the series) unless noted
# Text: NIH Molecular Libraries Screening Centers Network [MLSCN]
# NIH Chemical Genomics Center [NCGC]
# Assay Provider: Marshall W. Nirenberg, U.S. National heart lung & blood institute
# Memories persist for different lengths of time, from seconds or minutes to a lifetime. There are two kinds of memory: short-term memory (STM) and long-term memory (LTM). STM lasts for minutes to hours, which maybe mediated by modifications of molecules involved in synaptic functions. LTM lasts for days or longer, and may be due to the formation of new synapses or restructuring of existing synapses. LTM, but not STM, requires gene transcription and synthesis of proteins. CREB (cyclic-AMP Responsive Element Binding Protein) is one of the candidates plays an important role for enhancement of some types of LTM. CREB, a family of transcription factors, regulates the transcription of genes containing cAMP Responsive Elements (CRE). CRE is a nucleotide sequence often found in the promoter regions of genes that are binding sites for CREB.
# Using a beta-lactamase reporter-gene under control of cAMP responsive element, a cell-based assay [CellSensor(TM) CRE-bla CHO developed by Invitrogen Corp.] was used to measure forskolin-induced signaling. Library compounds were measured for their ability to modulate positively or negatively the action of EC10 NKH 477, a water soluble forskolin, on reporter gene activity. Compounds were screened in a titration series in 1536-well format. Positive and negative modulators were identified based on the AC50 values derived from the screening data.
# NCGC Assay Protocol Summary
# 2000 cells/5uL in Opti-MEM medium containing 0.5% dialyzed FBS, 0.1 mM NEAA, 1 mM sodium pyruvate and 10 mM HEPES was dispensed into 1536-well plates and cells were cultured at 37 degrees Celsius overnight. […] And then the plates were incubated at 37 degrees Celsius for 3 hours. 1 uL of CCF4-dye mixture was added to each well. After incubated at room temperature for 2 hours the plates were measured on an EnVision plate reader at Excitation 405nm, Emission1=460nm and Emission 2=530nm. The %Activity was determined from the ratio of 460nm/530nm.
# Keywords: NIH Roadmap, MLSCN, MLSMR, qHTS, NCGC, CRE, beta-lactamase reporter-gene assay.
# Potency means the concentration at half of the fitted maximal effect.
Compound,"activity change, negative = inhibition",Potency
NCC[C@@H](N)CSP(=O)(O)O,inconclusive: -2.93% [at 7.6 µM],–
Cc1c2non([O-])c-2c(C)[n+](=O)[n+]1[O-],inconclusive: -25.7%,–
CN(C(=O)Cc1ccc(Cl)c(Cl)c1)[C@H]1CCCC[C@@H]1N1CCCC1,inconclusive: -23.7%,–
CCc1nc2c(n1)c1c(non1O)c1c2no[n+]1[O-],–,inconclusive: 20 µM
O=C(CO)Nc1ccc([As](=O)(O)O)cc1,inconclusive: 24.2% [at 7.6 µM],–
COP1(=S)c2c(C)nn(CCC#N)c2N=C(c2ccc(F)cc2)N1C (stereo not drawn),inconclusive: 12.6%,–
O=P(Nc1nccs1)(c1ccccc1)c1nc2ccccc2s1 (stereo not drawn),inconclusive: -0.583%,–
O=P1(Nc2ccc(Br)cn2)COc2ccccc2OC1,inconclusive: -8.14%,–
